Data set [1] deals with dermal lesions both contaminated and infected with gram negative and gram positive bacteria. As to conditions: equine.
A further data set deals with total bacteria present. Conditions: after the 5 ppm / 0.1 ppm rinse.

Consider silver dihydrogen citrate, for which the “damage to tissue on irrigating deep wounds and abscesses” value in data set [1] is “without damage to tissue”. In addition, the “Silver residuals detected on the produce” value in the data set on total bacteria present was “within allowable tolerances for food grade products”.

(Values after patent US7435438B1, “Disinfectant and method of use” (Pure BioScience, priority 2003, dated 2008).)
